Substitutions are numbered along the chain they refer to. Numbers in names are those of the source.
B1: PAP-TCR-156-38: mutant of PAP-TCR-156, bCDR2-N3H; targets … (protein)
TCR alpha: QKEVEQNSGPLSVPEGAIASLNCTYSDRGSQSFFWYRQYSGKSPELIMFIYSNGDKEDGRFTAQLNKASQYVSLLIRDSQPSDSATYLCAVNNARLMFGDGTQLVVKPN
TCR beta: DSGVTQTPKHLITATGQRVTLRCSPRSGDLSVYWYQQSLDQGLQFLIQYYHGEERAKGNILERFSAQQFPDLHSELNLSSLELGDSALYFCASSVAGSPEAFFGQGTRLTVVED
modifications: left off: a dimerising Fc or GST
B2: PAP-TCR-156-39: mutant of PAP-TCR-156, bCDR3-E10H; targets … (protein)
TCR alpha: B1 TCR alpha
TCR beta: B1 TCR beta with H51N, E100H
modifications: left off: a dimerising Fc or GST
B3: PAP-TCR-156-29: mutant of PAP-TCR-156, aCDR1-S4E; targets … (protein)
TCR alpha: B1 TCR alpha with S30E
TCR beta: B1 TCR beta with H51N
modifications: left off: a dimerising Fc or GST
B4: PAP-TCR-156-30: mutant of PAP-TCR-156, aCDR1-S6E; targets … (protein)
TCR alpha: B1 TCR alpha with S32E
TCR beta: B1 TCR beta with H51N
modifications: left off: a dimerising Fc or GST
B5: PAP-TCR-156-31: mutant of PAP-TCR-156, aCDR1-S6H; targets … (protein)
TCR alpha: B1 TCR alpha with S32H
TCR beta: B1 TCR beta with H51N
modifications: left off: a dimerising Fc or GST
B6: PAP-TCR-156-32: mutant of PAP-TCR-156, aCDR1-S6N; targets … (protein)
TCR alpha: B1 TCR alpha with S32N
TCR beta: B1 TCR beta with H51N
modifications: left off: a dimerising Fc or GST
B7: PAP-TCR-156-33: mutant of PAP-TCR-156, aCDR2-N4H; targets … (protein)
TCR alpha: B1 TCR alpha with N53H
TCR beta: B1 TCR beta with H51N
modifications: left off: a dimerising Fc or GST
B8: PAP-TCR-156-34: mutant of PAP-TCR-156, aCDR2-D6N; targets … (protein)
TCR alpha: B1 TCR alpha with D55N
TCR beta: B1 TCR beta with H51N
modifications: left off: a dimerising Fc or GST
B9: PAP-TCR-156-35: mutant of PAP-TCR-156, bCDR1-S1H; targets … (protein)
TCR alpha: B1 TCR alpha
TCR beta: B1 TCR beta with S27H, H51N
modifications: left off: a dimerising Fc or GST
B10: PAP-TCR-156-36: mutant of PAP-TCR-156, bCDR1-SIN (Beta CDR1 NGDLS); targets … (protein)
TCR alpha: B1 TCR alpha
TCR beta: B1 TCR beta with S27N, H51N
modifications: left off: a dimerising Fc or GST
B11: PAP-TCR-156-37: mutant of PAP-TCR-156, bCDR2-Y1H; targets … (protein)
TCR alpha: B1 TCR alpha
TCR beta: B1 TCR beta with Y49H, H51N
modifications: left off: a dimerising Fc or GST

By UniProt entry, the sequences of proteins in these tests, tags left out. Where a name states a change or a piece, a line headed by the entry shows the natural chain unless it says otherwise.
UniProt P15309: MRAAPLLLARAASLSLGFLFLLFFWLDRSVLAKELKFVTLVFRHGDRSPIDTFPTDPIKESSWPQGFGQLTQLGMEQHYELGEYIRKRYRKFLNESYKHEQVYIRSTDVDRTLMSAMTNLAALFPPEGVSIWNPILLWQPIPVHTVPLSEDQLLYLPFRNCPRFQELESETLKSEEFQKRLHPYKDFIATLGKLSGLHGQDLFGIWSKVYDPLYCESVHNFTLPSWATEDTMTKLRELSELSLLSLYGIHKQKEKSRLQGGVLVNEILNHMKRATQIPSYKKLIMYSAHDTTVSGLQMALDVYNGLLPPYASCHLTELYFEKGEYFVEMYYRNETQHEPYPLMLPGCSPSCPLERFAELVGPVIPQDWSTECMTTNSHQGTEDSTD

Molecular target: PAP peptide (Homo sapiens, UniProt P15309)
Assay: PAP peptide titration assays of TCR156 variants (FIG. 7)
Type: cell-based

Row | Molecule | function in PAP peptide titration assays relative to unmutated TCR156 (wt)
1 | B1 | enhanced functions
2 | B2 | enhanced functions
3 | B3 | enhanced functions
4 | B4 | enhanced functions
5 | B5 | enhanced functions
6 | B6 | enhanced functions
7 | B7 | enhanced functions
8 | B8 | enhanced functions
9 | B9 | enhanced functions
10 | B10 | enhanced functions
11 | B11 | enhanced functions
